Data published in paper PMC5303876 (Nature Communications, 2017).

Molecular target: PD-L1 protein (F19-R238), refolded from E. coli (human, UniProt Q9NZQ7 19-238)
Assay: SPR; BIAcore T100, CM5 chip; PD-1 immobilised, PD-L1 flowed; room temperature; HBS-EP (150 mM NaCl, 10 mM HEPES pH 7.4, 0.005% Tween-20); response units plotted against protein concentrations
Conditions: both partners purified

B1: refolded N-loop truncated PD-1 (N33-R147, IgV domain) expressed in E. coli (domain or fragment)
chain: NPPTFSPALLVVTEGDNATFTCSFSNTSESFVLNWYRMSPSNQTDKLAAFPEDRSQPGQDCRFRVTQLPNGRDFHMSVVRARRNDSGTYLCGAISLAPKAQIKESLRAELRVTER
notes: human PD-1, residues N33-R147 (IgV domain, without the N-loop), UniProt Q15116; not glycosylated; Cloned into pET-21a with NdeI and XhoI; also called PD-1 without N-loop (N33-R147)
Q: For B1, which Kd is on record?
A: Its Kd is 4.06 nM.

B2: N-loop truncated PD-1 (N33-R147, IgV domain) expressed in insect cells (domain or fragment)
chain: NPPTFSPALLVVTEGDNATFTCSFSNTSESFVLNWYRMSPSNQTDKLAAFPEDRSQPGQDCRFRVTQLPNGRDFHMSVVRARRNDSGTYLCGAISLAPKAQIKESLRAELRVTER
notes: human PD-1, residues N33-R147 (IgV domain, without the N-loop), UniProt Q15116; secreted with an N-terminal gp67 signal peptide; also called N-loop truncated PD-1 (IgV), insect cell expressed; PD-1 protein without N-loop (N33-R147) from insect cells; source: Hi5 insect cells, baculovirus (pFastbac1, gp67 signal peptide), purified from supernatant (His-Trap HP, Superdex 200)
Q: How did the Kd turn out when B2 was run?
A: The Kd was 2.49 nM.
